Experimental data from US20030162220A1 (HARUO SUGIYAMA, published 2003).

Experiments:
[1] = molecular target: T1, WTIP 1-406, polypeptide containing the WW domain at the N-terminal end of WTIP with a histidine tag at the … (human, UniProt O75400 1-406); experiment: west western blot of his-tagged WTIP fragments (E. coli lysate) probed with GST
T1 construct: Expressed in E. coli; whole-cell lysate run on SDS-PAGE and blotted; not shown: C-terminal his tag and XhoI junction residues from pET-21b(+)
T1 sequence: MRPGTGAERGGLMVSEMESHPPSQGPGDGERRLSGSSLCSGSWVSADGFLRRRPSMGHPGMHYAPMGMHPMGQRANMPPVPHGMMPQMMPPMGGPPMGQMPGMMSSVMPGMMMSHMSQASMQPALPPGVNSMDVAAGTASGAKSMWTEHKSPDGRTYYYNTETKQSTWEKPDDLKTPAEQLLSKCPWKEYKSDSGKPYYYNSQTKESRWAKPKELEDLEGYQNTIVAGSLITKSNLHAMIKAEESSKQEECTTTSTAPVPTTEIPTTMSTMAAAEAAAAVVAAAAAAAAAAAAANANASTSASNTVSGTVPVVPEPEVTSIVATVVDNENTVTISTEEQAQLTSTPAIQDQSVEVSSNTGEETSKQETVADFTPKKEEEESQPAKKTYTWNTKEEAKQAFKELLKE

[2] = molecular target: T2, human WT1 interacting protein (WTIP) (human, UniProt O75400); experiment: west western blot of K562 cell extract on PVDF, detected with anti-GST antibody
T2 construct: also called p115; about 115 kDa protein
Protocol: In order to investigate the presence of the WT1 interacting protein that can be detected with the GST fusion protein in the K562 cells, K562 (5×10⁶) was dissolved in 500 μl of the sample buffer for SDS-PAGE, and the west western blot was carried out.
After separating the sample protein on SDS-PAGE, it was transferred to a PVDF membrane (Immobilon-P, Millipore) by the semi-dry method, blocked with TBST (0.05% Tween 20) containing 2% skim milk, and was reacted with 10-20 μg/ml TBS for 1 hour to overnight.
After washing the PVDF membrane with TBST, it was reacted for 1 hour with a 1000-fold dilution of anti-GST antibody (Santa Cruz) in TBST, washed again in TBST, and then reacted for 1 hour with a 8000-fold dilution of anti-mouse IgG antibody (alkaline phosphatase (ALP)-conjugated, or horseradish peroxidase (HRP)-conjugated) in TBST. After washing in TBST and TBS, it was subjected to color development with a NBT/BCIP solution for the ALP-conjugated antibody, and was subjected to light emission with ECL for the HRP-conjugated antibody.

binding result [1]: no binding | binding result [2]: no binding
B1: GST (glutathione S-transferase) alone (other, UniProt P08515 1-218, looked up)
chain: MSPILGYWKIKGLVQPTRLLLEYLEEKYEEHLYERDEGDKWRNKKFELGLEFPNLPYYIDGDVKLTQSMAIIRYIADKHNMLGGCPKERAEISMLEGAVLDIRYGVSRIAYSKDFETLKVDFLSKLPEMLKMFEDRLCHKTYLNGDHVTHPDFMLYDALDVVLYMDPMCLDAFPKLVCFKKRIEAIPQIDKYLKSSKYIAWPLQGWQATFGGGDHPPK
notes: Control probe in the west western blots
